Data taken from patent US20120045523A1, “COMBINATION OF A TLR3 LIGAND AND A CHEMOTHERAPY AGENT WHICH ACTS ON THE INTRINSIC "APOPTOSIS" PATHWAY IN THE TREATMENT OF CANCER” (UNIVERSITE CLAUDE BERNARD LYON I, priority 2008, published 2012).

System: NCI-H292 cells
Experiment: Number of living cells (MTS, CellTiter 96 AQueous One) after chemotherapy and/or poly(I:C)
Conditions: agent in combination with poly(I:C), average CI

## O=C1[O][Pt]2([NH][C@@H]3CCCC[C@H]3[NH]2)[O]C1=O [Oxaliplatin, oxaliplatin]
  CI (combination index): 0.63 ± 0.19
